The values that follow are results of earlier work, collected in US6548043B1, “Measurement of gastric emptying” (Metabolic Solutions, Inc., priority 1999, dated 2003).

The conditions of the data set: cited from earlier work.

Regarding ^13C-sodium octanoate, the water solubility result was “water soluble”.
